{
  "source": "patent US20070166778",
  "key": {"[1]": {"biological_target": "GST-Ubiquitin-L40-Flag"}, "[2]": {"biological_target": "His-ubiquitin-K63-ubiquitin-biotin"}, "[3]": {"biological_target": "His-ubiquitin-K48-ubiquitin-biotin"}},
  "data": [
    {"protein": "Full-length USP7 protein (protein) MNHQQQQQQQKAGEQQLSEPEDMEMEAGDTDDPPRITQNPVINGNVALSDGHNTAEEDMEDDTSWRSEATFQFTVERFSRLSESVLSPPCFVRNLPWKIMVMPRFYPDRPHQKSVGFFLQCNAESDSTSWSCHAQAVLKIINYRDDEKSFSRRISHLFFHKENDWGFSNFMAWSEVTDPEKGFIDDDKVTFEVFVQADAPHGVAWDSKKHTGYVGLKNQGATCYMNSLLQTLFFTNQLRKAVYMMPTEGDDSSKSVPLALQRVFYELQHSDKPVGTKKLTKSFGWETLDSFMQHDVQELCRVLLDNVENKMKGTCVEGTIPKLFRGKMVSYIQCKEVDYRSDRREDYYDIQLSIKGKKNIFESFVDYVAVEQLDGDNKYDAGEHGLQEAEKGVKFLTLPPVLHLQLMRFMYDPQTDQNIKINDRFEFPEQLPLDEFLQKTDPKDPANYILHAVLVHSGDNHGGHYVVYLNPKGDGKWCKFDDDVVSRCTKEEAIEHNYGGHDDDLSVRHCTNAYMLVYIRESKLSEVLQAVTDHDIPQQLVERLQEEKRIEAQKRKERQEAHLYMQVQIVAEDQFCGHQGNDMYDEEKVKYTVFKVLKNSSLAEFVQSLSQTMGFPQDQIRLWPMQARSNGTKRPAMLDNEADGNKTMIELSDNENPWTIFLETVDPELAASGATLPKFDKDHDVMLFLKMYDPKTRSLNYCGHIYTPISCKIRDLLPVMCDRAGFIQDTSLILYEEVKPNLTERIQDYDVSLDKALDELMDGDIIVFQKDDPENDNSELPTAKEYFRDLYHRVDVIFCDKTIPNDPGFVVTLSNRMNYFQVAKTVAQRLNTDPMLLQFFKSQGYRDGPGNPLRHNYEGTLRDLLQFFKPRQPKKLYYQQLKMKITDFENRRSFKCIWLNSQFREEEITLYPDKHGCVRDLLEECKKAVELGEKASGKLRLLEIVSYKIIGVHQEDELLECLSPATSRTFRIEEIPLDQVDIDKENEMLVTVAHFHKEVFGTFGIPFLLRIHQGEHFREVMKRIQSLLDIQEKEFEKFKFAIVMMGRHQYINEDEYEVNLKDFEPQPGNMSHPRPWLGLDHFNKAPKRSRYTYLEKAIKIHN", "values": [
      {"measurement": "HTRF signal (Delta F %) of intact substrate after one hour at 37° C. with USP7 at varying concentrations", "setting": "[1]", "value": "The decrease in the signal correlates with the increase in enzyme activity i.e. the cleavage of GST-Ub652-Flag substrate."},
      {"measurement": "HTRF signal (Delta F %) of intact substrate after one hour at 37° C. with USP7 at varying concentrations", "setting": "[2]", "value": "The decrease in the signal correlates with the increase in enzyme activity i.e. the cleavage of His-Ub-K48-Ub-biotin and His-Ub-K63-Ub-biotin."},
      {"measurement": "HTRF signal (Delta F %) of intact substrate after one hour at 37° C. with USP7 at varying concentrations", "setting": "[3]", "value": "The decrease in the signal correlates with the increase in enzyme activity i.e. the cleavage of His-Ub-K48-Ub-biotin and His-Ub-K63-Ub-biotin."}
    ]}
  ]
}
